Test results published in PMC11085448 (Molecules, 2024).

The chains behind the UniProt entries cited, without tags or fusion partners. Where a name states a change or a piece, a line headed by the entry shows the natural chain unless it says otherwise.
UniProt P41145: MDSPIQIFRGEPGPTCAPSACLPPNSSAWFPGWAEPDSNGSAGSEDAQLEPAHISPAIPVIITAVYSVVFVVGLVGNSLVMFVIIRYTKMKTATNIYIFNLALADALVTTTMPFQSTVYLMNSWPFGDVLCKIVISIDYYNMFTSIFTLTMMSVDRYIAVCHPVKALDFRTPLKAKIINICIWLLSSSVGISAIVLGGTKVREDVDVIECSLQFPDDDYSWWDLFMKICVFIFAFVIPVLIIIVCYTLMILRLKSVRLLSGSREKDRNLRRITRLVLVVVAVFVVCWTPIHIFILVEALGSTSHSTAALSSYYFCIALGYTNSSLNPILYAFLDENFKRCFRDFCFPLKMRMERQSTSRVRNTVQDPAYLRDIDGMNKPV

Target: human κ-opioid receptor (OPRK1) (Homo sapiens, UniProt P41145)
Assay: forskolin-induced cAMP accumulation assay, KOR antagonist
Details: CHO-K1 human KOR; versus EC90 of U50488H; Imax normalized to nor-BNI

## Oc1ccc2c3c1O[C@H]1c4[nH]c5c(c4C[C@@]4(O)[C@@H](C2)N(CC2CC2)CC[C@]314)C[C@@]1(O)[C@H]2Cc3ccc(O)c4c3[C@@]1(CCN2CC1CC1)[C@H]5O4 [nor-BNI, reference compound]
  KOR Antagonist %Imax ± SEM: 102.4 ± 1.2%
